Source: publication PMC9293779, “Elucidation of binding preferences of YEATS domains to site-specific acetylated nucleosome core particles” (The Journal of Biological Chemistry, 2022)

Target: T1, AF9-YEATS domain (residues 1–138) for X-ray analysis and ITC (human, UniProt P42568 1-138)
T1 construct: AF9 YEATS domain, human, residues 1–138; cloned in the pCR2.1 vector encoding GST and the polyhistidine tag; source: purified (HisTrap HP, Superdex 200)
T1 sequence (looked up): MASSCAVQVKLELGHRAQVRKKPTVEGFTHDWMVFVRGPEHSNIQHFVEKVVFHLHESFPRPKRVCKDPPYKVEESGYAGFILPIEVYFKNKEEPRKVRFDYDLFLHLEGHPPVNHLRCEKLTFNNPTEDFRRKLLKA
Test: ITC; protein (100 μM) in the cell, peptide (1 mM) in the syringe; 15 °C; 20 mM Tris-HCl pH 7.6, 500 mM NaCl; single binding site model
Details: both partners purified

Kd: 7 µM
B1: K9-acetylated H3 (1–19) peptide (peptide, UniProt P68431 2-20, looked up)
peptide: ARTKQTARKSTGGKAPRKQ
modifications: acetyl-lysine at K9
notes: histone H3, residues 1–19; also called K9-acetylated H3 peptide
